{"source": "PubChem BioAssay AID434955", "about": "(Southern Research Specialized Biocontainment Screening …, 2010)", "tested_on": "M. tuberculosis H37Rv growth with meropenem, percent inhibition", "test": "beta-lactam sensitization of Mtb H37Rv, H37Rv (AID 434955)", "data": [{"smiles": "CCCCCCCCCCCCCCCC[N+](C)(C)CCN(Cc1ccc(OC)cc1)c1ncccn1", "values": [{"measurement": "IC90", "value": 3.09, "unit": "µM"}]}]}
